Results taken from article PMC3988563 (2014).

Experiments:
[1] = target: T1, Ribosome termination complex formed with GAQ-RF1 (E. coli); assay: no nucleotide (RF3 lowGDP)
[2] = target: T1, Ribosome termination complex formed …; assay: GDPNP

Kd [1]: 8 nM
Kd [2]: 16 nM
B1: His-tagged RF3 (class 2 release factor) (natural protein)
chain: MTLSPYLQEVAKRRTFAIISHPDAGKTTITEKVLLFGQAIQTAGTVKGRGSNQHAKSDWMEMEKQRGISITTSVMQFPYHDCLVNLLDTPGHEDFSEDTYRTLTAVDCCLMVIDAAKGVEDRTRKLMEVTRLRDTPILTFMNKLDRDIRDPMELLDEVENELKIGCAPITWPIGCGKLFKGVYHLYKDETYLYQSGKGHTIQEVRIVKGLNNPDLDAAVGEDLAQQLRDELELVKGASNEFDKELFLAGEITPVFFGTALGNFGVDHMLDGLVEWAPAPMPRQTDTRTVEASEDKFTGFVFKIQANMDPKHRDRVAFMRVVSGKYEKGMKLRQVRTAKDVVISDALTFMAGDRSHVEEAYPGDILGLHNHGTIQIGDTFTQGEMMKFTGIPNFAPELFRRIRLKDPLKQKQLLKGLVQLSEEGAVQVFRPISNNDLIVGAVGVLQFDVVVARLKSEYNVEAVYESVNVATARWVECADAKKFEEFKRKNESQLALDGGDNLAYIATSMVNLRLAQERYPDVQFHQTREH
